US20240208895A1, “BRANCHED-CHAIN AMINO ACID DERIVATIVES TO TREAT DISEASE” (INTRABIO LTD., priority 2021, published 2024)
Read-outs that look alike come from different tables or passages of the source.

Assays:
[1] = Procedure: (§1) A Compound of the Disclosure is incubated at 1 μM, 10 μM and 100 μM with pooled liver S9 fractions from human (mixed gender) and mouse (CD1) at 1.5 mg/mL in 300 μL buffer containing phosphate 100 mM, MgCl2 2 mM, pH 7.4 at 37° C. for 0, 10, 20, 40, 60 min.
(§2) Enzyme kinetic data for uptake and metabolism of a Compound of the Disclosure is analysed by fitting the Michaelis-Menten equation to the data. V0=Vmax[S]/Km+[S], where V0 is initial velocity, [S] is substrate concentration, Vmax is maximum velocity and Km is substrate concentration at half Vmax. All fitting is performed using GraphPad Prism 8.4 software (GraphPad Software Inc). No weighting scheme is applied.

[2] = remark: listed apart in the source
Procedure: as §1, §2

CC(=O)NC(CC(C)C)C(=O)O (racemic) [N-acetyl-DL-[^2H10]leucine]
Km [1]: 69 µM
Km [2]: 216 µM
